Drawing on patent US10703756B2, “Pyrrolo[2,3-D]pyrimidinyl, pyrrolo[2,3-B]pyrazinyl, pyrrolo[2,3-B]pyridinyl acrylamides and epoxides thereof” (Pfizer Inc., priority 2015, dated 2020), this text covers IC50 for one compound.

Sequences of proteins named here, by UniProt entry; tags and fusion partners are left off.
UniProt P52333, whole entry: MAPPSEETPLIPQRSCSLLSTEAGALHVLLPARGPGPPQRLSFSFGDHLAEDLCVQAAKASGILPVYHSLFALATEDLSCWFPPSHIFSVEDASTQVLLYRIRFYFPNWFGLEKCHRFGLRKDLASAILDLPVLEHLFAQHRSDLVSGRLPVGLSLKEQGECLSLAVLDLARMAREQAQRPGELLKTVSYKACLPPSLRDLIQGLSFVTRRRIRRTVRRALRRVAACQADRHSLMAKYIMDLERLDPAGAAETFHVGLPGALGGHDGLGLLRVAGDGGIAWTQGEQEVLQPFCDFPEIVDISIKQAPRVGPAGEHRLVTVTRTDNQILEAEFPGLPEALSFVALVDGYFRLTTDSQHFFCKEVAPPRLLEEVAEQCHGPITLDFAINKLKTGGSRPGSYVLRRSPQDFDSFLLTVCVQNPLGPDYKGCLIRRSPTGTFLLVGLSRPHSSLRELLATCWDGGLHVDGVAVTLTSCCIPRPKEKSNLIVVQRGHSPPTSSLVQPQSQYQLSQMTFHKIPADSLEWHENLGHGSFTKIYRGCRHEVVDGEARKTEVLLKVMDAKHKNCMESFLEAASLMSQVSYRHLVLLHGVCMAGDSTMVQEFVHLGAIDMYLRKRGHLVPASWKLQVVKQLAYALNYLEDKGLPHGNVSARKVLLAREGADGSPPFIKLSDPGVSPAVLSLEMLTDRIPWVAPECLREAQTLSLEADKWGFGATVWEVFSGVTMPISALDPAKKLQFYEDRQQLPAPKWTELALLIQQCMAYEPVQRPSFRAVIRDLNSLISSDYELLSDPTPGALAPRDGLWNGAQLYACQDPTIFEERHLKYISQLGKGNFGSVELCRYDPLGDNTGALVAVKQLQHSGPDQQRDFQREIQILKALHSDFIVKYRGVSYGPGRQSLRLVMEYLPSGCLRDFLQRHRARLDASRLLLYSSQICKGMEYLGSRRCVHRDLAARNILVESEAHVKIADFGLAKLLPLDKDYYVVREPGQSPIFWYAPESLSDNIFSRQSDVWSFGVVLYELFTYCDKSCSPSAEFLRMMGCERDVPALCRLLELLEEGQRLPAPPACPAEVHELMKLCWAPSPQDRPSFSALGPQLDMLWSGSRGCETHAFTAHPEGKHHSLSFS

In assay [1] the target is T1, JAK3 enzyme (Homo sapiens, UniProt P52333). The experiment in a line: JAK Caliper Enzyme Assay at 4 μM ATP. Conditions: read-out: JAK3 4 μM ATP IC50. The protocol: (§1) JAK Caliper Enzyme Assay at 4 μM or 1 mM ATP
(§2) Test article was solubilized in dimethyl sulfoxide (DMSO) to a stock concentration of 30 mM. An 11-point half log dilution series was created in DMSO with a top concentration of 600 μM. The test compound plate also contained positive control wells containing a known inhibitor to define 100% inhibition and negative control wells containing DMSO to define no inhibition. The compound plates were diluted 1 to 60 resulting in a top final assay compound concentration of 10 μM and a 2% DMSO concentration.
(§3) Test article and assay controls were added to a 384-well plate. Reaction mixtures contained 20 mM HEPES, pH 7.4, 10 mM magnesium chloride, 0.01% bovine serum albumin (BSA), 0.0005% Tween 20, 4 μM or 1 mM ATP and 1 μM peptide substrate. The JAK3 assays contained 1 μM of the JAKtide peptide (FITC-KGGEEEEYFELVKK). The assays were initiated by the addition 1 nM JAK3 enzyme and were incubated at room temperature 75 minutes for JAK3. Enzyme concentrations and incubation times were optimized for each new enzyme preps and were modified slightly over time to ensure 20%-30% phosphorylation. The assays were stopped with a final concentration of 10 mM EDTA, 0.1% Coating Reagent and 100 mM HEPES, pH=7.4. […]

The target in assay [2] is T1, JAK3 enzyme. Put plainly: JAK Caliper Enzyme Assay at 1 mM ATP. Conditions: read-out: JAK3 1 mM ATP IC50. The method, then: as §1, §2, §3
Assay [3] relates to IL-15 induced P-STAT5 in human PBMC. Put plainly: PBMC IL-15 Induced P-STAT5. Conditions: read-out: PBMC IL15_pSTAT5_IC50, IL-15 final 41 ng/mL. The protocol:
PBMC IL-15 Induced P-STAT5
Test compounds were serially diluted in DMSO, with further dilution of the compounds in RPMI 1640 medium (Invitrogen #72400) supplemented with 10 mM HEPES, pH 7.4, 1 mM sodium pyruvate, and Penicillin/Streptomycin (by adding 5 μL compound/DMSO in 120 μL Dulbecco's Phosphate-Buffered Saline (D-PBS, 1×), [DMSO]=4%, and mixing the solution by repeated pipetting, 6×). IL-15 was diluted to the concentration at 820 ng/mL in RPMI 1640 medium.
Frozen human PBMC (200-250 million cells/vial) was thawed at 37° C. The cells were transferred to 10 mL warm medium in a 50-mL conical tube, and centrifuged at 1,200 RPM at room temperature for 5 min. The supernatant was aspirated. Cells were suspended in 3 mL warm human plasma and incubated at 37° C. in a tissue culture incubator for 1.5 to 2 h. After adding 47 ml D-PBS (37° C.) to PBMC/FBS suspension, centrifuging at 1,200 RPM at room temperature for 5 min, and aspirating the supernatant, the cells were resuspended in 20 mL warm RPMI medium. Ninety μL of cell suspension were pipetted per well in a 96-well, deep-well, V-bottom plate, and the plate was incubated at 37° C. for 30 min. […] Samples were analyzed using a BD Calibur™ or BD FACSCanto™ flow cytometer equipped with the BD High Throughput Sampler.

For the compound `C#CCOCCc1c[nH]c2ncnc(N[C@@H]3CC[C@H](C)N(C(=O)C=C)C3)c12` [Example 131, 1-[(2S,5R)-2-Methyl-5-({5-[2-(prop-2-yn-1-yloxy)ethyl]-7H-pyrrolo[2,3-d]pyrimidin-4-yl}amino)piperidin-1-yl]prop-2-en-1-one], the IC50 turned out to be 0.534 nM in assay [1], 24 nM in assay [2] and 86.2 nM in assay [3].
